In brackets after ≈: the same amount, converted by molar mass.

Data set [1] relates to Staphylococcus aureus. The data set can be described thus: Antibacterial activity against Staphylococcus aureus measured after 3 hrs in presence of 50% plasma. It is filed as functional.
A short description of data set [2]: Hemolytic activity in sheep RBC. The following applies: sheep red blood cells (erythrocytes). Format: toxicity, cell-based, Ovis aries, Erythrocyte.
In the next data set the test system is Escherichia coli. The data set is described as follows: Antibacterial activity against Escherichia coli ATCC 25922 by CLSI protocol based assay. Format: functional.
Data set [3] has as its system Staphylococcus aureus. The data set can be described thus: Antibacterial activity against Staphylococcus aureus measured after 6 hrs in presence of 50% plasma. It is filed as functional.
The test system of data set [4] is Staphylococcus aureus. The data set is described as follows: Antibacterial activity against Staphylococcus aureus ATCC 29213 by CLSI protocol based assay. Format: functional.
The subject of data set [5] is Staphylococcus aureus. The data set can be described thus: Antibacterial activity against Staphylococcus aureus in presence of 50% plasma. It is filed as functional.
The test system of data set [6] is Staphylococcus aureus. The data set is described as follows: Antibacterial activity against Staphylococcus aureus in presence of 50% serum. It is filed as functional.

For orientation: MIC means the smallest concentration in the dilution series that meets the test's criterion for growth inhibition. One may read the HC50 as the concentration giving 50% haemolysis. Consider `CC[C@H](C)[C@H](NC(=O)CN)C(=O)NCC(=O)N[C@@H](C)C(=O)N[C@H](C(=O)N[C@@H](CC(C)C)C(=O)N[C@@H](CCCCN)C(=O)N[C@H](C(=O)N[C@@H](CC(C)C)C(=O)N[C@H](C(=O)N[C@H](C(=O)NCC(=O)N[C@@H](CC(C)C)C(=O)N1CCC[C@H]1C(=O)N[C@@H](C)C(=O)N[C@@H](CC(C)C)C(=O)N[C@H](C(=O)N[C@@H](CO)C(=O)N[C@@H](Cc1c[nH]c2ccccc12)C(=O)N[C@H](C(=O)N[C@@H](CCCCN)C(=O)N[C@@H](CCCNC(=N)N)C(=O)N[C@@H](CCCCN)C(=O)N[C@@H](CCCNC(=N)N)C(=O)N[C@@H](CCC(N)=O)C(=O)N[C@@H](CCC(N)=O)C(N)=O)[C@@H](C)CC)[C@@H](C)CC)[C@@H](C)O)[C@@H](C)O)C(C)C)C(C)C` [MELITTIN], for which the MIC in the data set on Staphylococcus aureus [1] was more than 128 µg/mL; against Escherichia coli, 4 µg/mL (≈ 1.41 µM); in the data set on Staphylococcus aureus [3], more than 128 µg/mL; with Staphylococcus aureus [4], 4 µg/mL (≈ 1.41 µM); in the data set with Staphylococcus aureus [5], more than 128 µg/mL; in the data set on Staphylococcus aureus [6], more than 128 µg/mL. For the same compound, in data set [2], the HC50 was 4 µg/mL.
